Measurements as given in US20050282889A1, “Intracorporeal medicaments for photodynamic treatment of disease” (priority 1996, published 2005).

Assays:
[1] = Partition coefficient Kp, n-octanol / phosphate buffered saline; details: ratio of equilibrium concentrations, n-octanol vs PBS pH=7.4
[2] = Absorbance properties of halogenated xanthenes (λmax, α); type: physicochemical
From the text: Selected chemical and physical properties (such as chemical constituents at positions X, Y, and Z and functionalities R^1 and R^2, along with molecular weight and photochemical characteristics) of representative halogenated xanthenes are summarized in attached Table 1. Certain general properties of this class of agents are discussed in further detail in U.S. Ser. No. 09/130,041, filed on Aug. 6, 1998, U.S. Ser. No. 09/184,388, filed on Nov. 2, 1998, and U.S. Ser. No. 09/216,787, filed on Dec. 21, 1998, which are herein incorporated by reference in their entirety. […]
Further, as evidenced by the data shown in Table 1 (infra) and in FIG. 2, halogenated xanthenes share common spectroscopic properties, including a high single-photon cross-section extending from approximately 500 nm to 600 nm. […] Such excitation methods provide additional utility in the activation of medicaments formulated from these agents, for example when it is desirable to increase the depth of photoactivation to positions substantially beyond that readily accessible using visible light excitation methods.

Row | Compound | Kp (partition coefficient) [1] | λmax (nm) EtOH [2]
1 | O=C1OC2(c3cc(I)c(O)c(I)c3Oc3c2cc(I)c(O)c3I)c2c(Cl)c(Cl)c(Cl)c(Cl)c21 [Rose Bengal, 4,5,6,7-tetrachloro-2′,4′,5′,7′-Tetraiodofluorescein] | 11.5 | 
2 | CCN(CC)CC.CCN(CC)CC.O=C(O)c1c(Cl)c(Cl)c(Cl)c(Cl)c1-c1c2cc(I)c(=O)c(I)c-2oc2c(I)c(O)c(I)cc12 [Rose Bengal Derivative II] |  | 559 nm
